Laboratory results taken from PMC6213480, “A Novel Cold-Adapted Leucine Dehydrogenase from Antarctic Sea-Ice Bacterium Pseudoalteromonas sp. ANT178” (Marine Drugs, 2018).

Test system: O=C(O)[C@@H]1CCCN1
Test: purified protein
Conditions: oxidative deamination with NAD+, standard assay 0.1 M glycine-NaOH pH 10.4, 1 mM NAD+, 30 °C

For rPsLeuDH (Pseudoalteromonas sp.), the Km was 640 µM, the Vmax was 10.5 µmol/min/mg and the kcat was 20.8 s⁻¹. For the same substance, the kcat/Km was 32500 M⁻¹ s⁻¹.
